System: MIA PaCa-2 human pancreatic cancer xenograft
Test: In vivo efficacy study of Compound-24 with BI-3406, MIA PaCa-2 xenograft
Settings: mouse, 50 mg/kg

SMILES: COc1cc2nc(C)nc(N[C@H](C)c3cc(N)cc(C(F)(F)F)c3)c2cc1O[C@H]1CCOC1 [BI-3406, N—((R)-1-(3-amino-5-(trifluoromethyl)phenyl)ethyl)-7-methoxy-2-methyl-6-(((S)-tetrahydrofuran-3-yl)oxy)quinazolin-4-amine, reference compound]
- % tumor growth inhibition: 47.97±11.91%

From US12447152B2, “Pharmaceutical combination of PRMT5 inhibitors” (Lupin Limited, priority 2019, dated 2025)
